Earlier results as cited in patent US8664182B2, “Methods of inhibiting cancer cell growth with HDAC inhibitors and methods of screening for HDAC10 inhibitors” (Duke University, priority 2008, dated 2014).

The chains behind the UniProt entries cited, without tags or fusion partners. Where a name states a change or a piece, a line headed by the entry shows the natural chain unless it says otherwise.
UniProt Q969S8: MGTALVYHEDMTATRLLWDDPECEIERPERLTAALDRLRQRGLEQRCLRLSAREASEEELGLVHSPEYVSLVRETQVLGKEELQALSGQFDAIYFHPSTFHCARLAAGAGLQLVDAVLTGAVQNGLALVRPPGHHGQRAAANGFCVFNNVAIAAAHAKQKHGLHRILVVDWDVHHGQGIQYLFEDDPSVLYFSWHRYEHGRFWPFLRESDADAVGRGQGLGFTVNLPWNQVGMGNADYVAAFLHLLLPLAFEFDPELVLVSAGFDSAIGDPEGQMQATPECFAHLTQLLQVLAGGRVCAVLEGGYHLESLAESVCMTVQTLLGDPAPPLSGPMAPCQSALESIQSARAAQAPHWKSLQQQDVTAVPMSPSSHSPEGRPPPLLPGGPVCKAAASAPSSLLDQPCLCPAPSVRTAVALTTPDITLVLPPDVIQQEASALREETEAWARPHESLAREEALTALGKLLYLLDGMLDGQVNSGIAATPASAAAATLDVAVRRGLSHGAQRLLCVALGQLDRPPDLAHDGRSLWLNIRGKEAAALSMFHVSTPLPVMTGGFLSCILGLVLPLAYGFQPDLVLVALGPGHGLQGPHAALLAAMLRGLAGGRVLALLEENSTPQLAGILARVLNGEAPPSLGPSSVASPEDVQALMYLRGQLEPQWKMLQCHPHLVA

Target: HDAC10 (Homo sapiens, UniProt Q969S8)
Conditions: Hess-Stumpp et al. (2007); cited from earlier work

**Q.** For Nc1ccccc1NC(=O)c1ccc(CNC(=O)OCc2cccnc2)cc1 [MS-275], which “inhibition of HDAC10” value is on record?
**A.** Its value is “does not effectively inhibit HDAC10”.
